Biological target: T1, human 5-HT2A (h5-HT2A) receptor (Homo sapiens, UniProt P28223)
T1 construct: expressed in transfected cells; grown under G418 and hygromycin B selection
Test: FLIPR assay, human 5-HT2A, agonist mode
Assay type: cell-based
Experimental: I. Assessment of the Effect of Exemplary Compounds of Formula I Targeting on Human 5-HT2A (h5-HT2A) Receptor Under Agonist Mode:
I.c. Experimental Methods and Procedures: • 1. Cells were cultured in cell culture medium (DMEM containing 10% FBS, 1×penicillin-streptomycin 300 μg/ml G418 and 100 μg/ml hygromycin B) at 37° C., 5% (v/v) CO2. • 2. One day before the assays, the cells were detached using TrypLE™ Express and cells were counted using cell counter. Only cells with >85% viability were used for the assay. • 3. 20000 cells/well were seeded in 30 μl/well culture medium to a 384-well cell plate and cells were incubated overnight at 37° C., 5% (v/v) CO2. • 4. On the assay day, 2×dye solution was prepared following the manual of the FLIPR® Calcium 6 Assay Kit: i. The dye was diluted with assay buffer (20 mM HEPES in 1×HBSS, PH7.4); ii. Probenecid was added to the final concentration of 5 mM; iii. Vortex vigorously for 1-2 minutes. • 5. Medium was removed from cell plate by flicking the cell plate on towel papers. • 6. 10 μl of assay buffer and 10 μl of 2×dye solution was added to each well of the cell plate. • 7. […]
• i. The normalized fluorescence reading (RFU) was calculated as shown below, where Fmax and Fmin stand for maximum and minimum of calcium signal during defined time window: RFU=Fmax−Fmin. • ii. […]

The chains behind the UniProt entries cited, without tags or fusion partners.
UniProt P28223, whole entry: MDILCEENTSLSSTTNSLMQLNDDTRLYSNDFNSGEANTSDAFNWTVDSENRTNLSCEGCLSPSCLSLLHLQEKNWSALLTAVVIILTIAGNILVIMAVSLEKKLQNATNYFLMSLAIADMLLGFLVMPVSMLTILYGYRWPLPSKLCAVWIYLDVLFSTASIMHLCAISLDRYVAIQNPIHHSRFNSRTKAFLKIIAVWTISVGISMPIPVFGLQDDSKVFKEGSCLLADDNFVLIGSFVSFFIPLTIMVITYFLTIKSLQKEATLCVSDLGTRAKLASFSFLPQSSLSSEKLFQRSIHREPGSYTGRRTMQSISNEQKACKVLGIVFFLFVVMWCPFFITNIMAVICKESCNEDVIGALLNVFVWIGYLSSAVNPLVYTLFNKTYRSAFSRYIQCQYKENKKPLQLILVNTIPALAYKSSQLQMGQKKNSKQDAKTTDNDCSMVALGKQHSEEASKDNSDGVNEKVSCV

COc1ccc2[nH]cc(CCN(C)C)c2c1 [Compound 5-MeO-DMT]
5-HT2A (FLIPR) RFU@10 μM: 2,081 RFU

From patent publication US20260083703A1, “INDOLINE DERIVATIVES AS SEROTONERGIC AGENTS USEFUL FOR THE TREATMENT OF DISORDERS RELATED THERETO” (MINDSET PHARMA INC., priority 2022, published 2026)
